Structures can show the parent of a compound that is named as a salt.
Molecular target: Bcl-2 protein (Homo sapiens (Human), UniProt P10415)
Assay: Inhibition of Bcl-2 by the fluorescence polarisation technique
Assay type: binding
Procedure: The fluorescence polarisation tests were carried out on microplates (384 wells). […] After incubation for 2 hours, the fluorescence polarisation is measured.

Amino acid sequences for entries named in this document (tags omitted).
UniProt P10415, whole entry: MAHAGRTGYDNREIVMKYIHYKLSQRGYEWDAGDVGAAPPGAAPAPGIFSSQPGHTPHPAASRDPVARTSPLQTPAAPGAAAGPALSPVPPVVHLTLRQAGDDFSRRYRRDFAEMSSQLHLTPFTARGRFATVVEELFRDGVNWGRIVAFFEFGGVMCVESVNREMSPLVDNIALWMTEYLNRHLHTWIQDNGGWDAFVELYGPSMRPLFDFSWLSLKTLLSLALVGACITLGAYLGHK

With O=C(c1cc(-c2cc3c(cc2C(=O)N2Cc4ccccc4C[C@H]2CN2CCOCC2)OCO3)n2ccncc12)N(c1ccc(O)cc1)c1cccc(F)c1 [Example 121, N-(3-Fluorophenyl)-N-(4-hydroxyphenyl)-6-(6-{[(3S)-3-(morpholin-4-ylmethyl)-3,4-dihydroisoquinolin-2(1H)-yl]carbonyl}-1,3-benzodioxol-5-yl)pyrrolo-[1,2-a]pyrazine-8-carboxamide hydrochloride] the IC50 was 34 nM.

— patent US9120791B2, “Indolizine compounds, a process for their preparation and pharmaceutical compositions containing them” (LES LABORATOIRES SERVIER, priority 2012, dated 2015)
